# According to patent US10196601B2, “Cell culture medium and process for controlling α-amidation and/or C-terminal amino acid cleavage of polypeptides” (LEK PHARMACEUTICALS D.D., priority 2013, dated 2019):
# What was measured:
# [1] = tested on: CHO cells; assay: cell viability in SF culture (trypan blue exclusion); format: cell-based, Chinese hamster; conditions: experiment 2; selenium above 3 μM (FIG. 7)
# Protocol: Experiments (using different illustrative glycoproteins) were performed in shake flask (SF) systems, where […] SFs with a final volume of 125 ml were used.
# The experiment was performed in 500 ml SF with a final volume of 125 ml. After 14 days of fed batch bioprocess, harvests were collected, centrifuged, sterile filtered through a PES membrane and immediately subjected to a single step AC purification and a subsequent analysis of C-terminal α-amidation by […].
# [2] = tested on: CHO cells; conditions: 5 L BR; 2.31 μM versus 0.17 μM selenium (FIG. 11A)
smiles,measurement,setting,value
"O=[Se]([O-])[O-].[Na+].[Na+] [selenium, sodium selenite]",toxicity to the cell culture,[1],toxic
same,"toxicity to the cells (growth, viability)",[2],not toxic
